The values that follow come from ChEMBL document CHEMBL3430320, “Prediction of Thorough QT study results using action potential simulations based on ion channel screens” (J Pharmacol Toxicol Methods, 2014).

Amino acid sequences for entries named in this document (tags omitted). A change or cut given only in a name is not applied to a line headed by its entry.
UniProt Q12809: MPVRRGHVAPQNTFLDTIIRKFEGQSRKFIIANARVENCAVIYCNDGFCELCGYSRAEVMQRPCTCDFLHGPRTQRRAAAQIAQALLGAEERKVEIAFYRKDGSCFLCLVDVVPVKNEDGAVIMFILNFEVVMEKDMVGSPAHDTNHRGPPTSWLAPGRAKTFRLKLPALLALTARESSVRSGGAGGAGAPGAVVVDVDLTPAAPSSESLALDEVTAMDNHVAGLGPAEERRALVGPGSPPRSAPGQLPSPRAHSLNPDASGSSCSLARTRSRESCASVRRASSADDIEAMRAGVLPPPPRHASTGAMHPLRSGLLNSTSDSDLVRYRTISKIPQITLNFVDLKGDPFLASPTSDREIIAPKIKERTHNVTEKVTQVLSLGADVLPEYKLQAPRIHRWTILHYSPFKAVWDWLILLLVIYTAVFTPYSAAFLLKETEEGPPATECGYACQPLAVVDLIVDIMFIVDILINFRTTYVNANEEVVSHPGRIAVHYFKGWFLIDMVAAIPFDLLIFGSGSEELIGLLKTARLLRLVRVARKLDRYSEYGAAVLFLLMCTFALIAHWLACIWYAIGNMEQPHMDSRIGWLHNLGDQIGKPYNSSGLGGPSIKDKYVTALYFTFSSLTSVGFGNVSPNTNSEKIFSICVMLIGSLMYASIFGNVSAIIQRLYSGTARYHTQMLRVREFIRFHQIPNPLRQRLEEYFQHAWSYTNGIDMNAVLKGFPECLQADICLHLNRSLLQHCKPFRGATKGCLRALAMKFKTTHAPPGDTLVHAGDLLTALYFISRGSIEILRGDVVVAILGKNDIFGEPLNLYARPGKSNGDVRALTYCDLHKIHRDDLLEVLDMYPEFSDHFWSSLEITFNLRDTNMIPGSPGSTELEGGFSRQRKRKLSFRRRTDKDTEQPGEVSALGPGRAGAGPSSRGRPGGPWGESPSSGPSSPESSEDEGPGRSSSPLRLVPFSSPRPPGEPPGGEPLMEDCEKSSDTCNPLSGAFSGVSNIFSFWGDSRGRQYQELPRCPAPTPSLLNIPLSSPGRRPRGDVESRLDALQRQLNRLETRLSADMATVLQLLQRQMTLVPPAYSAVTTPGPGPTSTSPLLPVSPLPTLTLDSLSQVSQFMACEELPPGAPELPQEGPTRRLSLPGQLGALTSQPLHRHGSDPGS

The target of the assay is Voltage-gated inwardly rectifying potassium channel KCNH2 (Homo sapiens, UniProt Q12809). Put plainly: Inhibition of rapid delayed inward rectifying potassium current (IKr) in Chinese hamster ovary (CHO) K1 cells stably expressing hERG measured using IonWorks Quattro automated patch clamp platform. In kind it is functional, cell-based, Cricetulus griseus. (Block of hERG is tested as a sign of cardiac risk.)

The term pIC50 denotes the negative decadic logarithm of the IC50, by convention in mol/L. A low value points to a large IC50.

`N[C@@H](CC(=O)N1CCn2c(nnc2C(F)(F)F)C1)Cc1cc(F)c(F)cc1F` [SITAGLIPTIN]: the pIC50 amounted to 3.
